From patent US20230135524A1, “ARYL HYDANTOIN HETEROCYCLES AND METHODS OF USE” (The United States of America,as represented by the …, priority 2020, published 2023)

System: LNCaP ARF876L
Assay: IncuCyte % confluence cell growth inhibition, LNCaP ARF876L
Assay type: cell-based
Details: Homo sapiens, AR-positive, AR mutation F876L, % cell growth inhibition relative to DMSO

CNC(=O)c1ccc(N2C(=S)N(c3cnc(C#N)c(C(F)(F)F)c3)C(=O)C23CCC3)cc1F [ARN509, reference compound] gave an IC50 of 98.7 µM.
